Source: PubChem BioAssay (NCI)
The entries are a selection whose mix differs from that of the whole data set. Some structures have more than one record in an assay (separate samples or runs), and their calls can disagree. Active and inactive are the calls of the source. Cut-off read from the data, not from the text of the source: active = growth inhibition above about 70%; inactive = the rest.

Assay: NCI Yeast Anticancer Drug Screen. Data for the wt2 strain (AID 169);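 note: 0% = growth of vehicle-treated yeast cultures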
Details: S. cerevisiae wt2 strain growth inhibition, active compounds read high
Procedure: Growth inhibition of yeast strains with defined genetic alterations is measured as a screen for potential anti-cancer activity. Selected strains with alterations in DNA damage repair or cell cycle control were exposed to compounds and growth inhibition was measured relative to vehicle treated controls. The strain used in this assay is wt2

| SMILES | growth inhibition (at 1.2 µM) | growth inhibition (at 3.7 µM) | growth inhibition (at 11.0 µM) | growth inhibition (at 33.0 µM) | growth inhibition (at 100.0 µM) |
| --- | --- | --- | --- | --- | --- |
| ClCCN1CCCCC1CCl (stereo not given) | inactive: -1% | inactive: 6% | inactive: 1% | inactive: 8% | inactive: 36% |
| COc1ccc(C[N+](C)(CCCl)CCCl)c([N+](=O)[O-])c1 | inactive: 0% | inactive: 1% | inactive: 4% | inactive: 7% | inactive: 6% |
| COc1ccc([N+](=O)[O-])c(C[N+](C)(CCCl)CCCl)c1 | inactive: 13% | inactive: 13% | inactive: 3% | inactive: 17% | inactive: 26% |
| Cc1ccc([N+](=O)[O-])c(C[N+](C)(CCCl)CCCl)c1 | inactive: -4% | inactive: -6% | inactive: 5% | inactive: 35% | active: 85% |
| Cn1cnc([N+](=O)[O-])c1C[N+](C)(CCCl)CCCl | inactive: 17% | inactive: 17% | inactive: 18% | inactive: 34% | active: 72% |
| Cc1cccc(C[N+](C)(CCCl)CCCl)c1[N+](=O)[O-] | inactive: -2% | inactive: -2% | inactive: 7% | inactive: 35% | active: 83% |
